Ab-14 light chain CDR variants: yeast mating affinities

Reference: Li et al. 2023, doi:10.1038/s41467-023-39022-2. File: FLAb, binding data.

Antigen: PDVDLGDISGINAS, a 14-residue peptide of the SARS-CoV-2 spike HR2 region.

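Designed CDR sequences, proposed from the first random library and measured here. Several design methods are mixed in this list. The scFvs were displayed on barcoded MATa yeast, the peptide on MATalpha yeast. The frequency of each diploid, read from paired DNA barcodes, reflects how well the two displayed proteins bind. Each replicate has its own calibration line, from reference interactions of the BCL2 family. The assay was run in six technical replicates.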

Each scFv is VH, a 15-residue (Gly4Ser)3 linker, VL, as in the parent Ab-14, and differs from it in the CDRs of the light chain only.
VH: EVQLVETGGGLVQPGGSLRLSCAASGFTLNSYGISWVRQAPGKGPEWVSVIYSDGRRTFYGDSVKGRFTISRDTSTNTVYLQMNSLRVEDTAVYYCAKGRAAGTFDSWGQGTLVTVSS
VL: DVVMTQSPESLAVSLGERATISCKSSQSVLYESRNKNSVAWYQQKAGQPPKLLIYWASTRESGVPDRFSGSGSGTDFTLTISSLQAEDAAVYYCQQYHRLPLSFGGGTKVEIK

The parent's light chain CDRs are KSSQSVLYESRNKNSVA, WASTRES, QQYHRLPLS; each variant's own CDRs replace them letter for letter.
The read-out is the apparent dissociation constant on a log10 scale (nM): the lower, the stronger.
A mean of the replicates is given; it leaves out those without a signal.

With KLSYSNLYEDRNKNSVA | NASTREQ | QQYHRLPLS the result was 0.44 (6 of 6 replicates; controls 1 of 18).
With KLEWSWLYESRNKNSVA | NASQRES | QQYHRLPLS the result was 0.41 (6 of 6 replicates; controls 0 of 18).
With KIGGVTNGISRNKNSVA | EQSTREE | QQYNRLPLS the result was 0.02 (6 of 6 replicates; controls 4 of 18).
With KFPQSVLYESRNKNSVA | NASQRES | QQYHRLPLS the result was -0.21 (6 of 6 replicates; controls 1 of 18).
With TLGDVTRMESQKKNSIA | DMSNRAD | QQYHRLPLS the result was 0.00 (6 of 6 replicates; controls 2 of 18).
With HLAESAHMESRNKNSVA | DNSTRES | QHYDRLPLS the result was 2.44 (5 of 6 replicates; controls 2 of 18).
With KLEISVMQWSRNKNSVA | NASTREV | QQYHRLPLS the result was 0.15 (6 of 6 replicates; controls 0 of 18).
With QLGDEQVSGTLMAQNIA | HSDFRAD | QQYFRLPLL the result was 0.25 (6 of 6 replicates; controls 0 of 18).
With KLSQSWLYESRNKNSVA | NASQREE | QQYHRLPLS the result was 0.39 (6 of 6 replicates; controls 1 of 18).
With TISYSALMTGMNRNSVA | QAEERLE | QQYHRLPLS the result was 1.79 (5 of 6 replicates; controls 1 of 18).
With KSSQSVFYESRNENSVA | WASTRES | QQYHRLPLS the result was 1.31 (6 of 6 replicates; controls 1 of 18).
With KITATMRFEQKNSNNIA | EVTLRSN | QQYYRLPLS the result was 0.77 (6 of 6 replicates; controls 1 of 18).
With KLSGSVCMLSRNDNSVA | DANTRES | QQYHRLPLS the result was 0.04 (6 of 6 replicates; controls 0 of 18).
With KCSQSVLYESTNKNSVA | HASTRES | QQYHRLPLS the result was 0.56 (6 of 6 replicates; controls 0 of 18).
With KLSISHMVESINKSNVA | EMVTRES | QQYDRLPLS the result was 0.81 (6 of 6 replicates; controls 0 of 18).
With IVSQVMLWGLHAKNSIA | EAQTRIN | QQYDRLPLF the result was 2.21 (5 of 6 replicates; controls 0 of 18).
With KLSQSVLYESRNKNSVA | GASCRES | QQYHRLPLS the result was -0.02 (6 of 6 replicates; controls 2 of 18).
With KSSQSKLYESRNKNSVA | WASTRES | QQYHRLPLS the result was 2.46 (6 of 6 replicates; controls 0 of 18).
With KLPQSMEYESRNKNSVA | NASTRES | QQYHRLPLS the result was -0.22 (6 of 6 replicates; controls 0 of 18).
With HMSMLTLGGMRTRNSVA | QMTTREN | QQYDRLPLA the result was 0.85 (6 of 6 replicates; controls 1 of 18).
With KLSQSVMMESRNKNSVA | DASTRES | QQYHRLPLS the result was -0.52 (6 of 6 replicates; controls 4 of 18).
With KILQSWLYESRNKNSVA | HASTREQ | QQYHRLPLS the result was 0.41 (6 of 6 replicates; controls 3 of 18).
With KFSQEMLYESRNKNSVA | NASCRES | QQYHRLPLS the result was -0.04 (6 of 6 replicates; controls 1 of 18).
With KLSQSVLYESNNSNSVA | WASTRES | QQYHRLPLS the result was 2.21 (6 of 6 replicates; controls 2 of 18).
With KIQMFFGTLMEQINSIA | NSEVIVQ | QSYFRLPLS the result was 2.18 (6 of 6 replicates; controls 0 of 18).
With KVSQSWLYESRNKNAVA | GASTRES | QQYHRLPLS the result was -0.18 (6 of 6 replicates; controls 0 of 18).
With QIYQAMHTLSQMQDNVA | DVNERGS | QQYFRLPLS the result was 0.42 (6 of 6 replicates; controls 0 of 18).
With GIHSQMVGTSAVKENVA | NEAERLE | QQYQRLPLT the result was 1.42 (4 of 6 replicates; controls 0 of 18).
With KISMLINMTFEMSNNVA | EMVTRMK | QQYNRLPLS the result was 1.48 (5 of 6 replicates; controls 1 of 18).
With KQSQSVLMESRNCNSVA | DASTRES | QQYERLPLS the result was 0.04 (6 of 6 replicates; controls 0 of 18).
With KISQLVRVGSTHKNSIA | EEATRAD | QQYHRLPLA the result was 0.96 (6 of 6 replicates; controls 1 of 18).
With KSSQSVLYESFNKNSVA | WASTRES | QDYHRLPLS the result was 2.68 (2 of 6 replicates; controls 2 of 18).
With MISQLYNMGTFAINSVA | QASIRNA | QQYDRLPLM the result was 0.92 (6 of 6 replicates; controls 1 of 18).
With TLVGNIQGGGWAKKSVA | DAVMRVN | QQYYRLPLS the result was 0.74 (6 of 6 replicates; controls 0 of 18).
With KSSQSFLYESRNVNSVA | QASTRES | QQYHRLPLS the result was 0.76 (6 of 6 replicates; controls 1 of 18).
With IFSQSVLMGNLAKNSVA | QASTRFS | QQYHRLPLI the result was 1.15 (6 of 6 replicates; controls 0 of 18).
With KCSQNVLIMGRGPNNVA | EMTTRED | QQYDRLPLS the result was 0.80 (6 of 6 replicates; controls 1 of 18).
With HSSPSVLYESRNVNSVA | NASTRES | QQYHRLPLS the result was -0.29 (6 of 6 replicates; controls 0 of 18).
With KLRQSTLYETRNKNSVA | WASTREE | QQYHRLPLS the result was 0.84 (6 of 6 replicates; controls 2 of 18).
With KIGMVTNGISRNKNSVA | EQSTRED | QQYNRLPLS the result was 0.81 (6 of 6 replicates; controls 2 of 18).
With KSSQSKLYQSHNKNSVA | WASTRES | QQYHRLPLS the result was 1.01 (6 of 6 replicates; controls 0 of 18).

The parent sequence was in this pool as ten entries: three were never detected, three once, and four in most replicates, with averages from 0.34 to 2.37.
The authors averaged sequences with at least three values out of six and counted those with two or fewer as poor binders.
Values of this round are not directly comparable with the first-round values of the same sequences.
As a blank, each scFv also met three strains without target: over all light chain designs, 4% of these pairings were detected, typically at 2.64 and seldom below 1.59. Also given: how often the same scFv was detected with the empty control strains.